Only a part of the results on these compounds is given; other tests are left out.
Legend:
interferon α1 = assay: interferon induction in cell cultures of lymphocytes and fibroblasts; details: Hg(CN)2 5 μg/ml to 15 μg/ml micellarly included in 0.1% (g/g) cationic tenside
interferon β = assay: as above
[1] = tested on: cell-wall-synthesizing enzymes; details: gramnegative bacteria
[2] = toxicity of micellarly included active agents

In the case of mercury II cyanide, the “interferon α1 concentration induced” value (interferon α1) is reported as 20-50 units/ml, the “interferon β concentration induced” value (interferon β; Hg(CN)2 5 μg/ml to 15 μg/ml micellarly included in 0.1% (g/g) cationic tenside) is reported as 10-20 units/ml and the “increase of interferon liberation compared with simple aqueous buffered solutions of mercury II cyanide” value (interferon β; micellar incorporation, in particular interferon β, fibroblast cultures) is reported as 10 to 100 fold. The “concentration at which the micellarly included substance reacts with the cell-wall-synthesizing enzymes” value [1] was 10 µg/mL and the “reduction of toxicity by inclusion in N-tensides” value [2] was “up to 80%”.
